Yeast mating assay 1: variants of the scFv Ab-14

Values reported by Engelhart et al. 2022, doi:10.1038/s41597-022-01779-4 (FLAb copy).

Antigen: PDVDLGDISGINAS, a 14-residue peptide of the SARS-CoV-2 spike HR2 region.

The variants keep the heavy chain, the linker and the frameworks of Ab-14 (scFv order VH, the linker GGGGSGGGGSGGGGS, VL).
VH: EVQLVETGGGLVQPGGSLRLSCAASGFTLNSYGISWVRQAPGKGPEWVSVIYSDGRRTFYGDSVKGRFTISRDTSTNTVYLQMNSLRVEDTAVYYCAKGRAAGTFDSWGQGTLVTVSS
VL: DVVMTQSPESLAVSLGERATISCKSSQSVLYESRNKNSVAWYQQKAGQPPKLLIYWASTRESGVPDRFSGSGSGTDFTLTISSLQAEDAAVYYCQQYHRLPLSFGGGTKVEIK

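Library AAYL50 holds single substitutions and randomly drawn double and triple substitutions in the CDRs. Affinity was read by AlphaSeq, a pooled yeast mating assay with surface-displayed partners. After mating in shaken culture at 30 °C for 16 h, diploids were selected and their barcode pairs sequenced. The ratio of observed to expected reads was calibrated, replicate by replicate, on BCL2-family standards whose Kd was known from biolayer interferometry. There are three technical replicates.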

Changes read parent residue, position, new residue, counted from the first residue of the VL shown. The read-out is the apparent dissociation constant on a log10 scale (nM): the lower, the stronger. "nd" marks a missing value. The strain was present, yet no cells mated with the target were sequenced in that replicate, which points to weak or no binding. Background: pairings of library AAYL50 with three empty control strains gave a value in 18% of cases (median 4.19, 5th percentile 2.99). Values in that range, when seen in few replicates, are hard to tell from nonspecific mating.

log10 Kd (nM) by replicate | changes
nd 2.24 3.51 | S25P L30K E32P
nd nd 5.89 | R34P K36L V39Y
2.62 2.34 2.58 | S62L Y97I
4.58 3.56 nd | K24A S58H L102E
nd nd nd | V39S A40P P101D
5.14 3.52 nd | V39G S62H Y97H
4.39 nd 6.00 | N35Q W56D H98P
nd 4.25 4.86 | A57M L102S
1.26 1.09 1.04 | N35V H98P L102M
5.19 4.28 nd | K24Y W56I A57K
nd nd nd | S26V N35H L100R
nd nd nd | S33M L102Q S103W
1.37 1.30 1.68 | K36I H98E S103K
nd nd nd | S25F S38D
nd 5.39 4.09 | S58T Q95Y
nd nd nd | S38C R99V
nd nd nd | S25M Q27I S62F
nd nd nd | R34C V39Y W56A
2.31 1.78 nd | Q27S N37M E61D
nd nd nd | Y31I W56K A57P
nd nd nd | L30C E32I W56E
nd nd nd | K24I S38W
0.71 1.09 1.15 | R34G K36P H98T
nd nd nd | S26D Q27I Q95W
nd nd nd | S38C Q95S Q96N
nd nd nd | S38N E61W L100C
nd 3.07 nd | K24P V39P W56R
nd 3.75 4.36 | L30M S62R Q96R
nd nd nd | S28K V39M A57R
1.18 1.24 1.36 | Q27E L30N E61W
nd nd nd | N35L S38F Q95T
nd nd nd | N35T H98M L102T
1.10 1.14 1.52 | S26T V29P L30S
1.41 1.37 1.46 | N35P S58Q E61M
4.38 nd nd | L30W S33C S38D
nd 2.92 nd | S26D V39T S103I

For reference, 5 entries of the list once more:

changes | log10 Kd (nM) by replicate
K24I S38W | nd nd nd
V39G S62H Y97H | 5.14 3.52 nd
S26T V29P L30S | 1.10 1.14 1.52
N35P S58Q E61M | 1.41 1.37 1.46
S38N E61W L100C | nd nd nd

In this assay the parent's reference entry averaged 0.65; its copy inside this library read 1.68.